# Assay results: ChEMBL document CHEMBL1132993, “Novel benzofuran and benzothiophene biphenyls as inhibitors of protein tyrosine phosphatase 1B with antihyperglycemic properties” (J Med Chem, 2000)
# Molecular target: T1, Tyrosine-protein phosphatase non-receptor type 1 (Homo sapiens, UniProt P18031)
# T1 sequence (P18031 whole entry): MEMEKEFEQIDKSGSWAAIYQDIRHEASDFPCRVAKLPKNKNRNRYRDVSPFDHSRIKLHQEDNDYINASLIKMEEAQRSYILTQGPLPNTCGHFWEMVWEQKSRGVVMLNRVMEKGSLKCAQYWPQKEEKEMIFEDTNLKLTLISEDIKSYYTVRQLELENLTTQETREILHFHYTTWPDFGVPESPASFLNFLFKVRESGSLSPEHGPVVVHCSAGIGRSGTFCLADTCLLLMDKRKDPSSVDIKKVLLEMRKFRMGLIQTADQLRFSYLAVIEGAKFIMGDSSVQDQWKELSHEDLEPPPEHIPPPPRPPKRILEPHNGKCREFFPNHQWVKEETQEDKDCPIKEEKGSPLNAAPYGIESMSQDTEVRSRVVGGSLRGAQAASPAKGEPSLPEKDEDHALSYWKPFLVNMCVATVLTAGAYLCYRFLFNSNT
# Experiment: In vitro inhibitory activity against human recombinant protein tyrosine phosphatase 1b (PTP1B)
# Procedure, shortened: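 Recombinant human PTP1B, diluted in pH 7.4 Tris-HCl/EDTA/β-mercaptoethanol buffer, preincubated 10 min at 37 °C with compound in HEPES pH 7.4. Substrate was the insulin receptor 1142-1153 dodecapeptide phosphorylated at Y1146/1150/1151, 50 µM final. Reaction ran 30 min at 37 °C. Released phosphate was read by malachite green-ammonium molybdate at 650 nm, in quadruplicate. IC50 came from four-parameter logistic regression.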
row,SMILES,IC50
1,O=C(O)[C@@H](Cc1ccccc1)Oc1ccc(-c2ccc(-c3c(Cc4ccccc4)sc4ccccc34)cc2)cc1,95 nM
2,O=C(c1ccccc1)c1oc2ccccc2c1-c1ccc(-c2ccc(O[C@H](Cc3ccccc3)C(=O)O)cc2)cc1,680 nM
3,COc1ccc(Cc2sc3ccccc3c2-c2ccc(-c3ccc(O[C@H](Cc4ccccc4)C(=O)O)cc3)cc2)cc1,77 nM
